Measured values published in PubChem BioAssay AID624287 (National Center for Advancing Translational Sciences (NCATS), 2012).
Only a part is listed here, and it is no random draw. Records with an inconclusive call do not appear. Calls of active or inactive are those of the source. The call rests on the fitted dose curve; in most records, active means well fitted activation curve with a large enough effect; inconclusive means small, poorly fitted or top-dose-only effect, or another doubt; inactive means no such curve, though single readings can be large or run the other way; cell line not stated here.

Assay: qHTS for Agonist of gsp, the Etiologic Mutation Responsible for Fibrous Dysplasia/McCune-Albright Syndrome: qHTS;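 further: phosphodiesterase inhibitor Ro 20-1724 added with compounds to block cAMP breakdown; nearly all actives have a fitted effect of over 60% in size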
Settings: gsp mutant cells, cAMP HTRF, 30 min; at 76.9 µM (top of the series) unless noted
For `COP(=O)(OC)N1CC1c1ccccc1` (stereo not given), the activation (cAMP increase) was inactive: -22.4%.
In the case of `O=[N+]([O-])c1cc([N+](=O)[O-])c(O)c([N+](=O)[O-])c1.c1ccc(Oc2ccncc2)cc1`, the activation (cAMP increase) is reported as inactive: -4.37% [at 15.4 µM].
With `CCOC(=O)c1ccc(NC(=O)C(C)(CCl)SC)cc1` (stereo not given) the activation (cAMP increase) was inactive: 2.75% [at 15.4 µM].
For `CCOC(=O)c1ccc(NP(C)(=O)Oc2ccc(OC)cc2)cc1` (stereo not given), the activation (cAMP increase) was inactive: -4.64% [at 15.4 µM].
With `CSc1ccc(Nc2c([N+](=O)[O-])cc([N+](=O)[O-])cc2[N+](=O)[O-])cc1` the activation (cAMP increase) was inactive: -4.01%.
With `CCOP(C)(=S)SCC(=O)NC(C)C(=O)O` (stereo not given) the activation (cAMP increase) was inactive: -0.513%.
In the case of `O=C(OC1CN2CCC1CC2)c1cccc([N+](=O)[O-])c1` (stereo not given), the activation (cAMP increase) is reported as inactive: 24.5% [at 15.4 µM].
In the case of `CP(=O)(Nc1ccccn1)Oc1ccc(Cl)cc1` (stereo not given), the activation (cAMP increase) is reported as inactive: 2.16%.
With `CCC(C)N(CC(C)C)C(=S)SC(NC(C)=O)C(Cl)(Cl)Cl` (stereo not given) the activation (cAMP increase) was inactive: -31.3%.
For `CP(=O)(Nc1ccc(SC(F)(F)F)cc1)Oc1ccc(Cl)cc1` (stereo not given), the activation (cAMP increase) was inactive: 17.1%.
With `Cc1cccc(C)c1OP(C)(=O)Nc1ccc(SC(F)(F)F)cc1` (stereo not given) the activation (cAMP increase) was inactive: -35.3%.
In the case of `COP1(=S)c2c(C)nn(CCC#N)c2N=C(c2ccc(F)cc2)N1C` (stereo not given), the activation (cAMP increase) is reported as inactive: 4.77%.
In the case of `Cc1cc(C)cc(OP(C)(=O)Nc2ccc(SC(F)(F)F)cc2)c1` (stereo not given), the activation (cAMP increase) is reported as inactive: -5.52% [at 15.4 µM].
For `CCc1ccc(OP(C)(=O)N2CCN(c3ccc([N+](=O)[O-])cc3)CC2)cc1` (stereo not given), the activation (cAMP increase) was inactive: -35.4%.
For `CP(=O)(NC(=O)Nc1ccccc1)Oc1ccccc1` (stereo not given), the activation (cAMP increase) was inactive: -5.9%.
For `O=C(COc1ccccc1)OC1CN2CCC1CC2` (stereo not given), the activation (cAMP increase) was inactive: -0.164%.
For `C[N+]1=C2C=CC=CC=C2SC12C([N+](=O)[O-])=CC([N+](=O)[O-])=C[C-]2[N+](=O)[O-]` (stereo not given), the activation (cAMP increase) was inactive: 24.1%.
With `Nc1ccc([As](=O)(O)c2ccc(N)cc2)cc1` the activation (cAMP increase) was inactive: -6.23% [at 15.4 µM].
With `CC(C)(C)c1ccc(OP(C)(=O)O)cc1` the activation (cAMP increase) was inactive: -33.7%.
For `COc1ccccc1OP(C)(=O)Nc1ccccc1Br` (stereo not given), the activation (cAMP increase) was inactive: -3.19% [at 15.4 µM].
In the case of `CP(=O)(Nc1ccc(Cl)cc1)Oc1ccc(F)cc1` (stereo not given), the activation (cAMP increase) is reported as inactive: -42%.
For `CCN(/C(=N/P(=O)(N1CCOCC1)N1CCOCC1)N1CCOCC1)c1ccc(OC)cc1`, the activation (cAMP increase) was inactive: 2.85% [at 15.4 µM].
For `CN(C)C(=O)OCCc1n(C)cc[n+]1C`, the activation (cAMP increase) was inactive: 1.36%.
For `CC(C)=N/N=C(\N)N[N+](=O)[O-]`, the activation (cAMP increase) was inactive: 22.7% [at 15.4 µM].
With `CN(C)C(=O)c1c([N+](=O)[O-])cc([N+](=O)[O-])cc1[N+](=O)[O-]` the activation (cAMP increase) was inactive: 13.6%.
In the case of `CC(C)c1nc(Nc2ccccc2)n(P(=O)(N(C)C)N(C)C)n1`, the activation (cAMP increase) is reported as inactive: 21.9%.
In the case of `c1cc(-c2nn[nH]n2)ccc1-c1nn[nH]n1`, the activation (cAMP increase) is reported as inactive: -1.83%.
With `COc1ccc(C2=NCC(CBr)S2)cc1` (stereo not given) the activation (cAMP increase) was inactive: 23.8% [at 15.4 µM].
In the case of `COc1ccc(OP(C)(=O)Nc2ccc(Br)cc2)cc1` (stereo not given), the activation (cAMP increase) is reported as inactive: -2.87% [at 15.4 µM].
In the case of `CCN(CC)CC(O)COC(=O)C(O)(c1ccccc1)C1CCCCC1` (stereo not given), the activation (cAMP increase) is reported as inactive: 7.33%.
With `O=C(OCCCN1CCCC1)C(O)(c1ccccc1)C1CCCCC1` (stereo not given) the activation (cAMP increase) was inactive: -7.88% [at 15.4 µM].
For `COc1ccccc1OP(C)(=O)Nc1c(C)n(C)n(-c2ccccc2)c1=O` (stereo not given), the activation (cAMP increase) was inactive: -49%.
For `CC(=O)N1C2C3N(C(C)=O)C1C1N(C(C)=O)C(C(N1C(C)=O)N3C(C)=O)N2C(C)=O`, the activation (cAMP increase) was inactive: -37.5%.
In the case of `O=[N+]([O-])c1cccc2n[nH]nc12`, the activation (cAMP increase) is reported as inactive: -26%.
For `O=[N+]([O-])c1cc([N+](=O)[O-])c(CCNc2ccccc2)c([N+](=O)[O-])c1`, the activation (cAMP increase) was inactive: -22.9% [at 15.4 µM].
With `CCc1nc2c(n1)c1c(non1O)c1c2no[n+]1[O-]` the activation (cAMP increase) was inactive: -16.9%.
For `CCc1ccc(OP(C)(=O)Nc2cccnc2)cc1` (stereo not given), the activation (cAMP increase) was inactive: 3.01% [at 15.4 µM].
For `Cc1ccc(NP(=O)(Oc2ccccc2)Oc2ccccc2)nc1`, the activation (cAMP increase) was inactive: -1.27%.
With `CP(=O)(Oc1ccccc1)N1CCOC1=O` (stereo not given) the activation (cAMP increase) was inactive: -3.91%.
For `CC(C)(C)C(=O)NC(Sc1ccncn1)C(Cl)(Cl)Cl` (stereo not given), the activation (cAMP increase) was inactive: 27.8%.
With `O=[N+]([O-])c1ncn(CCn2ncnc2[N+](=O)[O-])n1` the activation (cAMP increase) was inactive: -0.198%.
In the case of `O=[N+]([O-])c1cccc(NC2=NCC(CBr)S2)c1` (stereo not given), the activation (cAMP increase) is reported as inactive: 5.29%.
In the case of `O=C(O)CNc1ccc([As](=O)(O)O)cc1`, the activation (cAMP increase) is reported as inactive: 6.15%.
With `O=P1(N(CCCl)CCCl)OCCCS1` (stereo not given) the activation (cAMP increase) was inactive: 8.36%.
With `O=C(Nc1cc([As](=O)(O)O)ccc1O)c1ccccc1` the activation (cAMP increase) was inactive: 25.3%.
With `CCOC(=O)c1ccc(NP(C)(=O)Oc2ccc(Cl)cc2)cc1` (stereo not given) the activation (cAMP increase) was inactive: -3.35%.
With `CP(=O)(OC12CC3CC(CC(C3)C1)C2)OC12CC3CC(CC(C3)C1)C2` the activation (cAMP increase) was inactive: -13.5%.
With `CCN(N=Nc1nonc1N)c1nonc1N` the activation (cAMP increase) was inactive: 4.53% [at 15.4 µM].
For `CCC(=O)N(c1ccccc1)C1CCCCC1`, the activation (cAMP increase) was inactive: 4.06%.
For `CP(=O)(OCCOc1ccccc1)OCCOc1ccccc1`, the activation (cAMP increase) was inactive: 8%.
For `CP(=O)(Nc1ccc(Cl)cc1Cl)Oc1ccccc1` (stereo not given), the activation (cAMP increase) was inactive: 1.58%.
For `CCCCCCCCCCCCCCCC1C[N+](C)(C)CCOP(C)(=O)O1` (stereo not given), the activation (cAMP increase) was inactive: 1.45%.
With `Nc1cccc2ccc([As](=O)(O)O)cc12` the activation (cAMP increase) was inactive: -4.13%.
In the case of `CCCC1OP(N)(=O)OCC1CC` (stereo not given), the activation (cAMP increase) is reported as inactive: 15.5%.
For `O=C(O)c1ccccc1[As](=O)(O)O`, the activation (cAMP increase) was inactive: -9.22% [at 15.4 µM].
With `CC(=O)Nc1ccc([As](=O)(O)O)cc1` the activation (cAMP increase) was inactive: -1.7% [at 15.4 µM].
In the case of `CN(C)P(=O)(N(C)C)n1c(Nc2ccccc2)nnc1-c1ccccc1`, the activation (cAMP increase) is reported as inactive: -87.6%.
For `Cc1cc(C)cc(OP(C)(=O)Nc2cccc(C(F)(F)F)c2)c1` (stereo not given), the activation (cAMP increase) was inactive: -10.7% [at 15.4 µM].
With `O=P(Nc1nc2ccc(Cl)cc2s1)(c1ccccc1)c1ccccc1` the activation (cAMP increase) was inactive: 26.1% [at 15.4 µM].
With `Cc1ccc(NP(=O)(Oc2ccccc2F)Oc2ccccc2F)nc1` the activation (cAMP increase) was inactive: -1.81% [at 15.4 µM].
